Test results: US20250213705A1 (BRIGHT PEAK THERAPEUTICS, published 2025)

Amino acid sequences for entries named in this document (tags omitted). Residues count along the entry.
UniProt Q04609, 44-750 limits assumed: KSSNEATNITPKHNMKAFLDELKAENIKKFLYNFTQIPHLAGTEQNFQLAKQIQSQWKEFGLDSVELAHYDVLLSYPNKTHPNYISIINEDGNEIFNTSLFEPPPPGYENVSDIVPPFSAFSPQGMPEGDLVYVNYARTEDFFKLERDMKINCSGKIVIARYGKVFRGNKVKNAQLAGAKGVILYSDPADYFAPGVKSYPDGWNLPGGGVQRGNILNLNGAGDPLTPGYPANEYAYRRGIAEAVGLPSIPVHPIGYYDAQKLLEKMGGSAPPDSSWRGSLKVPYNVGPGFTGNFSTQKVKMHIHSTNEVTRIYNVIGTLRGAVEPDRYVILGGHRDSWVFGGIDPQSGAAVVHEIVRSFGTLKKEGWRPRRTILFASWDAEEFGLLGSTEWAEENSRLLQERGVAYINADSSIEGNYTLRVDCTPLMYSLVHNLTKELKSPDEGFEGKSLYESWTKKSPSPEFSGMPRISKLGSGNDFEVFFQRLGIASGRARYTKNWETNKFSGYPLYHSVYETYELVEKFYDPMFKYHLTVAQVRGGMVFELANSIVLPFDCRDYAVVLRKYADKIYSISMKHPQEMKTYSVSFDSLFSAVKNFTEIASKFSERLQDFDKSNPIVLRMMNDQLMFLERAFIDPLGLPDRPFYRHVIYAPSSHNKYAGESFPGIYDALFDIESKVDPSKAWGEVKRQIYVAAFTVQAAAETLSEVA

B1: Compound 117 (peptide)
peptide: YYSSEEGFGW
modifications: Ac-Tyr-Tyr-Ser-Ser-Glu-Glu-Gly-Phe(4-COOH)-Gly-Trp joined to the Lys side chain of Glu-urea-Lys (by the synthesis in paragraph 443)
B2: Compound 118 (peptide)
peptide: EEEGFGW
modifications: Ac-Glu-Glu-Glu-Gly-Phe(4-COOH)-Gly-Trp joined to the Lys side chain of Glu-urea-Lys (by the synthesis in paragraph 445)

Molecular target: Recombinant Human PSMA/FOLH1 Protein, CF (rnd systems) (human, UniProt Q04609 44-750)
Assay: cell-based or functional assay

Row | Binder | IC50 (nM), inhibition of NAAG hydrolysis by PSMA (Amplex Red) [nM]
1 | B1 | 0.293
2 | B2 | 0.312
